PubChem BioAssay AID588664 (The Scripps Research Institute Molecular Screening Center, 2011)
This is a selection; strong and weak results do not stand in their true shares. Calls of active or inactive are those of the source. Rule as the data show it: active = inhibition above about 5% (passing the limit was not always enough); inactive = the rest.

Protein sequences, listed by entry. Tags and fused reporters are not part of them. Lines headed by an entry give the natural chain unless they say otherwise; changes in a name come on top.
UniProt P00519, whole entry, looked up: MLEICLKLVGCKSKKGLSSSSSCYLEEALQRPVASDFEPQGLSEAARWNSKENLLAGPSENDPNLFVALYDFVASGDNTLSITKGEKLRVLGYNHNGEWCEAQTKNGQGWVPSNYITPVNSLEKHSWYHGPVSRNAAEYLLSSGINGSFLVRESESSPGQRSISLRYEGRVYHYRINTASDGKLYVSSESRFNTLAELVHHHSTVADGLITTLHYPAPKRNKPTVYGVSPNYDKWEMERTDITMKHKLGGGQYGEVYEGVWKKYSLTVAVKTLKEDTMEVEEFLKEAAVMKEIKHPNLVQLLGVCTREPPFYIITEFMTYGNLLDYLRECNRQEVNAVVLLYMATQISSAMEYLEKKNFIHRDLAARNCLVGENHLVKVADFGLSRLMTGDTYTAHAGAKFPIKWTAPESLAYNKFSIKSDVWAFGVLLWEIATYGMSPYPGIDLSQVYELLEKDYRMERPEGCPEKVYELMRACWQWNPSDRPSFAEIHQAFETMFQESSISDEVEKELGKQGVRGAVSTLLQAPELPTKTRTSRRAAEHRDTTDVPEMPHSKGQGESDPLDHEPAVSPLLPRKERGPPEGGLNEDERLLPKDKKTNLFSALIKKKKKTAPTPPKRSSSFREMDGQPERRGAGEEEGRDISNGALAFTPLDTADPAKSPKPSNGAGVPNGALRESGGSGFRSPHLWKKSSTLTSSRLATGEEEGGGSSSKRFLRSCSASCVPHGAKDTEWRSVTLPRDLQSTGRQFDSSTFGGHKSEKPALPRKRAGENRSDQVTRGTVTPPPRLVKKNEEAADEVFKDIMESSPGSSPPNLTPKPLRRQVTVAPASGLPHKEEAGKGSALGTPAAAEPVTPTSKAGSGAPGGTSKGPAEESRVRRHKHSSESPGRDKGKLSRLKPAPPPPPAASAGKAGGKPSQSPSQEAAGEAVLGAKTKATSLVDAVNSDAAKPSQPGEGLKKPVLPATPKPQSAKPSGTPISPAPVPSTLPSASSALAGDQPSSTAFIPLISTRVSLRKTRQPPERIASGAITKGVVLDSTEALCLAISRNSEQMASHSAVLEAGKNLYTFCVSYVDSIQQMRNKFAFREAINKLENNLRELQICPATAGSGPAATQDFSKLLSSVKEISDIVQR
UniProt Q13671: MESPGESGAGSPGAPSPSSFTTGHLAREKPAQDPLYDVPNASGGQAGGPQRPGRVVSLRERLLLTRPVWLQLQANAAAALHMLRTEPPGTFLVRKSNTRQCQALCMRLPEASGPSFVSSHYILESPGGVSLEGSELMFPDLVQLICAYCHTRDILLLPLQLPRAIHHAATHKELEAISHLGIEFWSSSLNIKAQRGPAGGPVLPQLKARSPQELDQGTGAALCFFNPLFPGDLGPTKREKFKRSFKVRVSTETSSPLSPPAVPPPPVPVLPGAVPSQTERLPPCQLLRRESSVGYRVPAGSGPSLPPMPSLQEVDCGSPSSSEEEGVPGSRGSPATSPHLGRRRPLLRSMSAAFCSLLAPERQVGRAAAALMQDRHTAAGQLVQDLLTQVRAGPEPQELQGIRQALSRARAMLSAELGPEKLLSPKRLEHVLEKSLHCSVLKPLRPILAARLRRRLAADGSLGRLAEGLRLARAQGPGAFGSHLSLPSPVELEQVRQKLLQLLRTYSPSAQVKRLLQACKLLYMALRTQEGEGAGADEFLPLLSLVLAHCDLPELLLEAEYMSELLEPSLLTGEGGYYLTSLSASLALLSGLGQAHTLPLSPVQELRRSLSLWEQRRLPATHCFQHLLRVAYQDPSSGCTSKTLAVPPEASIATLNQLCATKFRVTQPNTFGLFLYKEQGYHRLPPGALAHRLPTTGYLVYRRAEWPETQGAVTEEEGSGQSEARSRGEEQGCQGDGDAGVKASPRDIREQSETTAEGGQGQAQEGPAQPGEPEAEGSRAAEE

target: Tyrosine-protein kinase ABL1 (Homo sapiens) + Ras and Rab interactor 1 (Homo sapiens) (UniProt P00519+Q13671); experiment: disruptors of human Abl and Rin1 association – biochemical, TR-FRET, primary screen (AID 588664); conditions: TR-FRET Rin1/Abl binding, at 7.35 µM, active compounds read high

Structure (SMILES) | inhibition
O=C(O)CNc1ccc([As](=O)(O)O)cc1 | inactive: 0.76%
O=[N+]([O-])c1cccc(NC2=NCC(CBr)S2)c1 (centres undefined) | inactive: 0.2%
COC(=O)C1(C)COP(=O)(Nc2ccccc2)OC1 (centres undefined) | inactive: 1.95%
O=[N+]([O-])c1ncn(CCn2ncnc2[N+](=O)[O-])n1 | inactive: -0.02%
CC(C)(C)C(=O)NC(Sc1ccncn1)C(Cl)(Cl)Cl (centres undefined) | inactive: 1.08%
O=C(Nc1cc([As](=O)(O)O)ccc1O)c1ccccc1 | inactive: 2.27%
O=P1(N(CCCl)CCCl)OCCCS1 (centres undefined) | inactive: 0.35%
c1cc(-c2nn[nH]n2)ccc1-c1nn[nH]n1 | inactive: -2.6%
CC1CCN(C(=O)Oc2c(Cl)cc(Cl)c3cccnc23)CC1 | inactive: -2.72%
CN(C)C(=O)OCCc1n(C)cc[n+]1C | inactive: -0.92%
CC(C)=N/N=C(\N)N[N+](=O)[O-] | inactive: 0.84%
CC(C)c1nc(Nc2ccccc2)n(P(=O)(N(C)C)N(C)C)n1 | inactive: -1.74%
CCN(/C(=N/P(=O)(N1CCOCC1)N1CCOCC1)N1CCOCC1)c1ccc(OC)cc1 | inactive: 0.07%
C[N+]1=C2C=CC=CC=C2SC12C([N+](=O)[O-])=CC([N+](=O)[O-])=C[C-]2[N+](=O)[O-] (centres undefined) | inactive: 4.21%
Nc1ccc([As](=O)(O)c2ccc(N)cc2)cc1 | inactive: 1.99%
CCc1nc2c(n1)c1c(non1O)c1c2no[n+]1[O-] | inactive: -5.14%
O=[N+]([O-])c1cc([N+](=O)[O-])c(CCNc2ccccc2)c([N+](=O)[O-])c1 | inactive: 1.61%
Cc1ccc(NP(=O)(Oc2ccccc2)Oc2ccccc2)nc1 | inactive: -4.57%
O=[N+]([O-])c1cccc2n[nH]nc12 | inactive: -2.3%
CC(=O)N1C2C3N(C(C)=O)C1C1N(C(C)=O)C(C(N1C(C)=O)N3C(C)=O)N2C(C)=O | inactive: 0.7%
COc1ccc(C2=NCC(CBr)S2)cc1 (centres undefined) | inactive: 2.95%
O=[N+]([O-])C1C(O)C(O)C([N+](=O)[O-])C(O)C1O (centres undefined) | inactive: 2.62%

Structure (SMILES) | inhibition
O=C(NC(Sc1ccncn1)C(Cl)(Cl)Cl)c1ccccc1 (centres undefined) | inactive: -2.23%
Oc1ccccc1CNc1ccccn1 | inactive: 1.54%
CC(C)CC(=O)NC(Sc1ccc(Cl)cc1)C(Cl)(Cl)Cl (centres undefined) | inactive: 2.03%
Nc1cc(N)c2nonc2c1[N+](=O)[O-] | inactive: -6.44%
Clc1ccc(Cl)c(NC2=NCC(CBr)S2)c1 (centres undefined) | inactive: 1.63%
CN1CCCC(OC(=O)C(c2ccccc2)c2ccccc2)C1 (centres undefined) | inactive: -4.93%
Cc1ccc(OP(=O)(Nc2nccs2)Oc2ccc(C)cc2)cc1 | inactive: 5.36%
COc1ccccc1OP(=O)(Nc1ccc(C)cn1)Oc1ccccc1OC | inactive: -0.89%
Cc1ccc(N/C(=N/P(=O)(N2CCOCC2)N2CCOCC2)N2CCOCC2)cc1 | inactive: 1.41%
CN(C(=O)Cc1ccc(Cl)c(Cl)c1)[C@H]1CCCC[C@H]1N1CCCC1 | inactive: -0.48%
NC(=O)c1cc([N+](=O)[O-])cc([N+](=O)[O-])c1N | inactive: 3.34%
Nc1cccc2ccc([As](=O)(O)O)cc12 | inactive: -2.29%
CCN(N=Nc1nonc1N)c1nonc1N | inactive: -0.08%
Cc1ccc(NP(=O)(Oc2ccccc2F)Oc2ccccc2F)nc1 | inactive: -0.36%
CN(C(=O)Cc1ccc(Cl)c(Cl)c1)[C@H]1CCCC[C@@H]1N1CCCC1 | inactive: -1.08%
CCOP(=O)(Nc1ccccc1)OCC | inactive: -1.48%
Cc1cc(SC(NC(=O)c2ccc(F)cc2)C(Cl)(Cl)Cl)ncn1 (centres undefined) | inactive: -0.59%
CN(C)P(=O)(N(C)C)n1c(Nc2ccccc2)nnc1-c1ccccc1 | inactive: -1.16%
O=P(Nc1nc2ccc(Cl)cc2s1)(c1ccccc1)c1ccccc1 | inactive: -0.86%
CCCC1OP(N)(=O)OCC1CC (centres undefined) | inactive: 0.63%
O=C(O)c1ccccc1[As](=O)(O)O | inactive: 1.13%
CC(=O)Nc1ccc([As](=O)(O)O)cc1 | inactive: -1.38%

Structure (SMILES) | inhibition
CN(C)C(=O)Oc1noc2ccccc12 | inactive: -1.25%
O=c1c2cc([N+](=O)[O-])ccc2[nH]c2c([N+](=O)[O-])cc([N+](=O)[O-])cc12 | inactive: -0.05%
Cc1ccccc1OP(=O)(Nc1ccccn1)Oc1ccccc1C | inactive: -0.67%
CC(NC(=O)COC(=O)C(O)(c1ccccc1)c1ccccc1)c1ccccc1 (centres undefined) | inactive: 1.1%
CCC(=O)N1C2C3N(C(=O)CC)C1C1N(C(=O)CC)C(C(N1C(=O)CC)N3C(=O)CC)N2C(=O)CC | inactive: -4.38%
O=C(OC1CN2CCC1CC2)c1ccccc1 (centres undefined) | inactive: -0.75%
CC(=O)NC(SC(=S)N(CC(C)C)CC(C)C)C(Cl)(Cl)Cl (centres undefined) | inactive: -0.51%
Cc1ccc(OP(=O)(Nc2ccccn2)Oc2ccc(C)cc2)cc1 | inactive: 2.42%
COC(=O)c1cc2c(s1)N=C(c1ccccc1)N(C)P2(=O)N1CCOCC1 (centres undefined) | inactive: -1.83%
O=P1(N(CCCl)CCCl)OCCC2CCCCN21 (centres undefined) | inactive: 1.97%
Cc1ccc(NP(=O)(Oc2cccc(C)c2)Oc2cccc(C)c2)nc1 | inactive: -3.41%
c1ccc(-c2nn[nH]n2)c(-c2nn[nH]n2)c1 | inactive: 4.12%
CCNC(=S)/N=C(\N)N[N+](=O)[O-] | inactive: 0.76%
O=C(NC1CCS(=O)(=O)C1)NP(=S)(Oc1ccccc1)Oc1ccccc1 (centres undefined) | inactive: -0.54%
CC(=O)Nc1ccc(Oc2c([N+](=O)[O-])cc([N+](=O)[O-])cc2[N+](=O)[O-])cc1 | inactive: 0.79%
CC(=O)Nc1ccc([As](=O)(O)O)c(O)c1 | inactive: -2.54%
C[C@@H]1C=CCP(=O)(Oc2ccccc2)O1 (some centres undefined) | inactive: -0.8%
C[C@H]1OP(=O)(Oc2ccccc2)C[C@@H]2O[C@@H]21 (some centres undefined) | inactive: 0.82%
Cc1ccccc1CN(C)C(=O)COC(=O)C(O)(c1ccccc1)c1ccccc1 | inactive: 2.59%
COC(=O)C1(C)COP(=O)(NCc2ccccc2)OC1 (centres undefined) | inactive: 0.76%
